Measured affinities in a library of Ab-14 heavy chain variants

Source: Li et al. 2023 (doi:10.1038/s41467-023-39022-2), MIT Lincoln Laboratory and A-Alpha Bio; data file from the FLAb repository.

Binding partner: SARS-CoV-2 spike HR2 peptide, sequence PDVDLGDISGINAS.

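The starting antibody came from a phage panning campaign against this peptide. The variants were designed computationally from a first round of random CDR variants and then made and measured. Group labels follow the data file (Ctrl: baseline library sampled from a position-specific scoring matrix, with some repeated check sequences; Rand: our label for a block that the file lists under HC and that is probably the random mutants of the ten best first-round binders; En: ensemble of fine-tuned language models; GP: Gaussian process model; GPLM: also part of the Gaussian process libraries; HC: hill climbing; Gen: genetic algorithm; Gibbs: Gibbs sampling; a sequence that several methods proposed may carry one label only). The assay is AlphaSeq: two haploid yeast populations carry antibody and antigen on their surface. Pairs that bind mate more often; barcode pairs of the diploids are counted by sequencing. Read counts were normalised to the haploid input and turned into Kd by a linear fit to BCL2-family pairs of known affinity, for each replicate. There are six technical replicates.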

Ab-14 is the parent antibody, in scFv form: VH, then a (GGGGS)3 linker, then VL. The light chain is unchanged in all variants.
VH: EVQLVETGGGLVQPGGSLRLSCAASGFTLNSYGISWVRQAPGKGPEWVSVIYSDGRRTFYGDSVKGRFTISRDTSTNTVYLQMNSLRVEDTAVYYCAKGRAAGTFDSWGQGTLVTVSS
VL: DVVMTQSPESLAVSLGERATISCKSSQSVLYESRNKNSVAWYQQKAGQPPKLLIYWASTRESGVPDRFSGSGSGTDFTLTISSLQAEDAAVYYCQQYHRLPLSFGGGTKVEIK

Each variant is given by its three heavy chain CDRs, as the data file delimits them; those of the parent are GFTLNSYGIS, VIYSDGRRTFYGDSVK, GRAAGTFDS. The read-out is the apparent dissociation constant on a log10 scale (nM): the lower, the stronger. Replicates are averaged; those with no signal do not enter the mean. An entry "not detected" has no value in the source: the pair was not observed among the diploids in any replicate. This suggests poor binding but is not conclusive. Of ten entries with the parent sequence, four were seen in most replicates (averages 0.34 to 2.37), three in one and three in none, so single entries are noisy. Values of this round are not directly comparable with the first-round values of the same sequences. Background: pairings of all heavy chain designs with three empty control strains gave a value in 1% of cases (median 2.08, 5th percentile 0.84). Values in that range, when seen in few replicates, are hard to tell from nonspecific mating. The authors averaged sequences with at least three values out of six and counted those with two or fewer as poor binders.

CDR-H1,CDR-H2,CDR-H3,group,"log10 Kd (nM), mean",detected
GFDLDEYGIS,VIYADGRRTFYADSVK,GNVAGTFDS,En_HC,-0.27,6/6
GFDLNEYGIS,VIYADGMRTAYSDSVK,GGNAGTFDL,En_Gen,-0.12,4/6
GFTLESYGIS,VIYADGRRTFYGDHVK,GRAAGTFNS,GP_HC,2.30,2/6
GFDLNQYGIS,VIYSDGTRTFYSDSVK,GRAAGTFDS,GP_HC,-0.03,6/6
GFDLDEYGIS,VIYADGQRKAYADSVK,GNQAGTFDV,En_Gen,-0.72,6/6
GFSLNSYGIS,VIYSDGRRTFYADSVK,GDAAGTFDS,GPLM_Gen,0.78,6/6
GFDLNEYGIS,VIYADGRRTAYSDSVK,GNEAGTFDV,En_Gen,-0.25,6/6
GFELNSYGIS,VIYSDGRRTFYGDSVK,GGVAGTFDS,GPLM_Gibbs,0.79,6/6
GFDLNSYGIS,VIYSDGKRTFYGDRVK,GRQAGTFDS,GP_Gen,1.42,5/6
GFSLNSYGIS,VIYSDGRRTFYGDPVK,GNAAGTFDT,GP_Gibbs,0.16,6/6
GQDLAEYGIS,VIYADGKRTMYANDVK,GHNGGQGKT,En_Gibbs,not detected,0/6
GFDLNEYGIS,VIYADGRRTFYSDSVK,GTNAGTFDL,En_HC,-0.51,6/6
GFDLNSYGIS,VIYSDGRRTFYVDSVK,GWTAGTFDS,GP_Gen,0.52,6/6
GFDLNEYGIS,VIYADGRRTSYKDSVK,GETAGTFDV,En_HC,1.24,4/6
GFTLNSYGIS,VIYADGRRTFYGDSVK,GRAWGTNKS,Rand,1.38,1/6
MFWLNEYGIS,VIYSDGRRTFYGDSVK,GQTAGTFDT,GP_Gibbs,not detected,0/6
GFDLNEYGIS,VIYADGMRTYYSDSVK,GNVAGTFDI,En_Gen,-0.50,6/6
GFTLNEYGIS,VIYSDGRRAFYTDSVK,GRAAGTFDS,GP_HC,0.43,6/6
GFTLNDYGIS,VIYSDGRRTFYGDAVK,GRAAGTFMS,GP_HC,2.75,1/6
GFDLDEYGIS,VIYADGQRTAYADSVK,GNTAGTFDI,En_Gen,-0.35,6/6
GFDLNEYGIS,VIYSDGRRTFYGDSVK,GRAAGTFDM,GP_HC,0.22,6/6
GFDLSEYGIS,VIYADGRRTFYTDSVK,GENAGTFDE,En_HC,0.70,6/6
GFTLNSYGIS,VIYSDGRRTFYSDSVK,GQMAGTFDT,GP_HC,0.30,6/6
GRTLNSYGIS,VIYSDGRRTFYGDSVK,GQAAGTFDS,Ctrl,not detected,0/6
GFDLNEYGIS,VIYADGMRTAYSDSVK,GQTAGTFDL,En_Gen,-0.57,6/6
GFDLNEYGIS,VIYADGMRTQYIDSVK,GETAGTFDV,En_HC,-0.38,6/6
GFDLNEYGIS,VIYADGVRTAYVDSVK,GNVAGTFDM,En_Gen,-0.17,6/6
GFDLDEYGIS,VIYADGMRTAYSDSVK,GGNAGTFDM,En_Gen,-0.54,6/6
GFSLNSYGIS,VIYSDGRRTFYDDSVK,GRAGGTFDS,GP_HC,0.46,2/6
GFDLDEYGIS,VIYADGQRKAYADSVK,GEVAGTFDV,En_Gen,-0.04,6/6
GFELNEYGIS,VIYADGHRSFFTDTVK,GQQAGIFNV,En_Gibbs,not detected,0/6
GFTLNEYGIS,VIYSDGRRTFYSDSVK,GRVAGTFDS,GP_HC,-0.08,6/6
GFCLNEYGIS,VIYSDGRRTFYHDSVK,GKAAGTFDS,GP_Gibbs,0.81,3/6
GFALNEYGIS,VIYADGFRRSYQDKVK,GVNVGEFSV,En_Gibbs,not detected,0/6
GFDLNAYGIS,VIYSDGRRTFYGDSVK,GRTAGTFDS,GPLM_Gibbs,0.37,6/6
GFTLNDYGIS,VIYSDGRRTQYTDSVK,GRAAGTFDT,GP_HC,1.49,6/6
GFQLNSYGIS,VIYSDGRRTFYNDSVK,TRAAGTFES,Ctrl,not detected,0/6
GFSLNSYGIS,VIYSDGRRTFYMDSVK,GQTAGTFDS,GPLM_Gen,0.86,6/6
GKSIDEYGIS,VIYADGQRKEYTDSVK,GQFDDAMDL,En_Gibbs,not detected,0/6
GFELNSYGIS,VIYSDGRRTFYGDSVK,GRQAGTFDS,GPLM_Gibbs,0.67,6/6
GFTLNEYGIS,VIYSDGRRTFYGDSVK,GRRAVTFDQ,GPLM_HC,not detected,0/6
GFTLNSYGIS,VIYSDGRRTFYSDSVK,GQTAGTFDL,GPLM_Gibbs,0.74,6/6
KFSLNDYGIS,VIYSDGRRTFYGDSVK,GRTAGTFDS,GPLM_Gen,0.41,6/6
GFMLNSYGIS,VIYSDGFRTFYSDSVK,DRAAGTFDE,Ctrl,not detected,0/6
GFDLESYGIS,VIYADGMRVSYTNNVK,GQNVMISTA,En_Gibbs,not detected,0/6
GFNLNSYGIS,VIYSDGRRTFYADNVK,GRTAGTFDS,GPLM_Gibbs,0.47,6/6
GFDLNEYGIS,VIYADGMRTQYIDSVK,GNLAGTFDS,En_HC,-1.03,6/6
GFDLNEYGIS,VIYADGSRTAYADNVK,GNVAGTFDI,En_Gen,-0.11,6/6
GFWLNEYGIS,VIYSDGRRTFYGDSVK,GHAAGTFDS,GP_Gen,1.65,2/6
GLTLNSYGIS,VIYADGRRTFYGDSVK,GRVAGTFDS,Ctrl,0.01,6/6
GFHVNSYGIS,VIYSDGRRTFYGDSVK,GRAAGTFDS,Ctrl,not detected,0/6
GFQLNSYGIS,VIYADGRRTFYGDSVK,GTAAGTFDS,Ctrl,-0.20,6/6
GFTLNQYGIS,VIYSDGRRRFYSDSVK,GRAAGFFDS,Rand,not detected,0/6
GFSLNSYGIS,VIYSDGRRTFYGDSVK,GRTAGTFDG,GPLM_Gen,3.00,1/6
GDSLDEYGIS,VIYADGQRKAYMDNVK,GNGQGTLFD,En_Gibbs,1.54,1/6
GFSLNEYGIS,VIYSDGRRTFYSDSVK,GRAAGKFDS,GPLM_HC,0.13,6/6
GFDLNEYGIS,VIYADGKRTAYIDSVK,GEVAGTFDQ,En_Gen,-0.32,6/6
GNNLDEYGIS,VIYADGQRTAYAQSVK,GETGDNAMT,En_Gibbs,not detected,0/6
KFDLNSYGIS,VIYSDGRRTFYQDSVK,GQTAGTFDS,GP_Gen,0.87,5/6
GFNLNSYGIS,VIYADGLRTFYGDSVK,GRAAGTFDS,Ctrl,not detected,0/6
GFDLNEYGIS,VIYADGMRTFYADSVK,GTNAGTFDM,En_Gen,-0.49,6/6
GFDLNSYGIS,VIYSDGRRTFYIDSVK,GRIAGTFDS,GP_Gen,0.27,6/6
GFSLNSYGIS,VIYSDGRRTFYTDSVK,GEAAGTFDS,GPLM_Gen,1.29,6/6
KFTLNSYGIS,VIYSDGRRTFYDDSVK,GQEAGTFDS,GP_HC,0.94,1/6
GHTLNSYGIS,VIYSDGRRTFYGDSVD,GRAAGTFDQ,Ctrl,not detected,0/6
GFDLEDYGIS,VIYADGKRTAYADSVK,GNVAGTFDT,En_Gen,-0.47,6/6
GFDLNEYGIS,VIYADGRRTFYIDSVK,GTNAGTFDA,En_HC,-1.04,6/6

9 of these entries, quoted again:

| CDR-H1 | CDR-H2 | CDR-H3 | group | log10 Kd (nM), mean | detected |
|---|---|---|---|---|---|
| GFTLESYGIS | VIYADGRRTFYGDHVK | GRAAGTFNS | GP_HC | 2.30 | 2/6 |
| GFSLNSYGIS | VIYSDGRRTFYDDSVK | GRAGGTFDS | GP_HC | 0.46 | 2/6 |
| GFTLNSYGIS | VIYADGRRTFYGDSVK | GRAWGTNKS | Rand | 1.38 | 1/6 |
| GFNLNSYGIS | VIYSDGRRTFYADNVK | GRTAGTFDS | GPLM_Gibbs | 0.47 | 6/6 |
| GFDLSEYGIS | VIYADGRRTFYTDSVK | GENAGTFDE | En_HC | 0.70 | 6/6 |
| GFQLNSYGIS | VIYSDGRRTFYNDSVK | TRAAGTFES | Ctrl | not detected | 0/6 |
| GFTLNEYGIS | VIYSDGRRAFYTDSVK | GRAAGTFDS | GP_HC | 0.43 | 6/6 |
| GFSLNSYGIS | VIYSDGRRTFYMDSVK | GQTAGTFDS | GPLM_Gen | 0.86 | 6/6 |
| GFTLNDYGIS | VIYSDGRRTFYGDAVK | GRAAGTFMS | GP_HC | 2.75 | 1/6 |